# Key:
# in vivo = conditions: mouse, po
# [1] = Incidence of gastric disorders (erosion) in rats; conditions: rat, in vivo, po
smiles,measurement,setting,value
"CN1C(C(=O)Nc2cccc(F)n2)C(=O)c2ccccc2S1(=O)=O (centres unmarked) [N-(6-fluoro-2-pyridyl)-3,4-dihydro-2-methyl-4-oxo-2H-1,2-benzothiazine-3-carboxamide 1,1-dioxide]",selectivity ratio,in vivo,> 667
same,selectivity ratio,[1],39.6

# Reference: patent US4376119A, “Benzothiazine derivative” (priority 1981, dated 1983)
